Measurements from US7544689B2, “Purine derivatives” (Cyclacel Limited, priority 2002, dated 2009).

Chains of the proteins cited; added tags and fusions are not shown.
UniProt P28482, whole entry: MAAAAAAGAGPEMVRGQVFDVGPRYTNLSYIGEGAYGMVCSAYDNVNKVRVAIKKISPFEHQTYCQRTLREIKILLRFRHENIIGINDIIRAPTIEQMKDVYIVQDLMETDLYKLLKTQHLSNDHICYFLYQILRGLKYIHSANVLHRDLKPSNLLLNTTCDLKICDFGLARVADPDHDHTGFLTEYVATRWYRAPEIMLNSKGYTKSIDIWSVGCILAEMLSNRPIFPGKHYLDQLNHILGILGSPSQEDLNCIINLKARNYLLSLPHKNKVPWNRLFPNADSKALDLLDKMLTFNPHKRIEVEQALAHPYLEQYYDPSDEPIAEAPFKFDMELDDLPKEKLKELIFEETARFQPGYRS

Key:
[1] = target: ERK2 (Homo sapiens, UniProt P28482); assay: Kinase assay, ERK-2 inhibition; assay type: biochemical; conditions: read-out: Kinase inhibition ERK2 IC50
[2] = tested on: Human tumour cell lines: A549, HT29, Saos-2; assay: 72-h MTT cytotoxicity assay; assay type: cell-based; conditions: read-out: In vitro anti-proliferative activity (72 h MTT IC50)
[3] = target: cyclic AMP-dependent kinase (PKA) catalytic subunit (Homo sapiens, UniProt P17612); assay: Kinase assay, PKA inhibition; assay type: biochemical; conditions: read-out: Kinase inhibition PKA IC50

For `CC[C@H](Nc1nc(NCc2ccccn2)c2ncn(C(C)C)c2n1)C(C)(C)O`, the IC50 [1] was 59 µM, the IC50 [2] was 24 µM and the IC50 [3] was greater than 200 µM.
